## Antibody variant affinities, Ab-95 light chain, assay 2

The measurements come from Engelhart et al. 2022 (doi:10.1038/s41597-022-01779-4) through the FLAb antibody collection.

Target: peptide PDVDLGDISGINAS, taken from heptad repeat 2 (HR2) of SARS-CoV-2 spike.

Ab-95 is the parent antibody, in scFv form: VH, then a 15-residue (Gly4Ser)3 linker, then VL. The heavy chain is unchanged in all variants.
VH: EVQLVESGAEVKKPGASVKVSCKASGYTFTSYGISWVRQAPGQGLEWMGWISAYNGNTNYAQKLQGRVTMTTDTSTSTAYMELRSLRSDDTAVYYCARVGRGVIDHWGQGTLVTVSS
VL: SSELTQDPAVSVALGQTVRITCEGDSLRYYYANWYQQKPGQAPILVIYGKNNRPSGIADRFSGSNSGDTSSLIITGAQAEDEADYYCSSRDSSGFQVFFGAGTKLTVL

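Phage display of a naive human antibody library on the peptide gave the parent. Variants in AAYL52 differ from the parent at up to three CDR positions; double and triple changes were sampled at random. Affinity was read by AlphaSeq, a pooled yeast mating assay with surface-displayed partners. Mating (16 h, 30 °C) was followed by selection of diploids and sequencing of their barcodes. The ratio of observed to expected reads was calibrated, replicate by replicate, on BCL2-family standards whose Kd was known from biolayer interferometry. The assay was run in three technical replicates.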

Each variant is given by its three light chain CDRs, as the data file delimits them; those of the parent are EGDSLRYYYAN, GKNNRPS, SSRDSSGFQVF.
This list gathers variants with a substitution at E23 (VL, numbered from residue 1).
Kd is apparent (estimated from mating counts) and averaged on the log scale over replicates with a signal. Smaller is tighter.
"nd" marks a missing value. The strain was present, yet no cells mated with the target were sequenced in any replicate, which points to weak or no binding.

CDR-L1,CDR-L2,CDR-L3,apparent Kd,seen in,control signals
PGDSLRYYYAN,GKNNRPS,SSRDSSGFQVF,1.5 µM,1 of 3,3 of 9
GGDSLQYYIAN,GKNNRPS,SSRDSSGFQVF,770 nM,3 of 3,1 of 9
ARDSLRYYYAN,FKNNRPS,SSRDSSGFQVF,nd,0 of 3,0 of 9
LGDSLVYYYAN,GKNNRPS,SERDSSGFQVF,4.7 µM,1 of 3,3 of 9
LGDSLRYYSAN,GTNNRPS,SSRDSSGFQVF,54 nM,3 of 3,2 of 9
CYDSLRYYYAN,GKNNRPS,SSRDSSGFQVF,14 µM,2 of 3,5 of 9
DGDSLRYYYAN,GKNNRPS,SSRDSDGCQVF,680 nM,1 of 3,3 of 9
LGESLRYYYAN,GKNNRPS,SSRDSSGFQCF,1.8 µM,1 of 3,0 of 9
SGDSLRYYYAN,GKPNRGS,SSRDSSGFQVF,22 µM,1 of 3,4 of 9
RGDSLRRYYAP,GKNNRPS,SSRDSSGFQVF,2.2 µM,2 of 3,4 of 9
LGDSSRYYYAN,GLNNRPS,SSRDSSGFQVF,15 µM,1 of 3,1 of 9
AGDSLRYYYAN,GKNNRPS,SSRYSSGMQVF,4.3 µM,3 of 3,4 of 9
IGDSLREYYAN,GKNNRPS,SSRDSDGFQVF,380 nM,3 of 3,1 of 9
YGDSLRYYYAN,GKNNRPS,SSRDSSGFFVF,16 µM,2 of 3,2 of 9
SGDSLRYYYAN,DKNNRPS,SSRDSSHFQVF,690 nM,3 of 3,2 of 9
LGDSLRKAYAN,GKNNRPS,SSRDSSGFQVF,14 nM,3 of 3,3 of 9
KGDSLRYYYAN,GKNNRPS,SSRQSSHFQVF,64 nM,3 of 3,3 of 9
QGDSLRYYYAN,GKNNRPS,SSNDSSIFQVF,2.8 µM,3 of 3,1 of 9
PGDSLRYYYAN,GKNNRES,SSRDSSSFQVF,nd,0 of 3,1 of 9
GGDSLRYYYAN,GKNNFPS,SSRDSSGFQVE,73 µM,2 of 3,2 of 9
TGDKLRYYYAN,GKNNRPS,SSRDSSGFWVF,2.0 µM,1 of 3,1 of 9
DGMSSRYYYAN,GKNNRPS,SSRDSSGFQVF,6.9 µM,2 of 3,1 of 9
KGDSLRYYYAN,GKNNLPS,SSRDSSGFQVF,86 nM,3 of 3,2 of 9
IGDSYRYWYAN,GKNNRPS,SSRDSSGFQVF,36 µM,1 of 3,4 of 9
QGDSMRYYYAN,GKNNRPS,SSRASSGFQVF,1.4 µM,3 of 3,1 of 9
HGDSLRYYYAN,GKNNRPS,ESRDSSGFQVF,54 nM,3 of 3,3 of 9
KGDSLRYYYAN,GKNNRPS,SSCDSSGFVVF,nd,0 of 3,0 of 9
CGISKRYYYAN,GKNNRPS,SSRDSSGFQVF,24 µM,2 of 3,2 of 9
TGDLLRYYYAN,HKNNRPS,SSRDSSGFQVF,19 µM,3 of 3,5 of 9
AGDSLRYYYAN,GKNGRPS,SSRDSSGFAVF,300 nM,3 of 3,5 of 9
PGDSLRYYYAN,KKNNRDS,SSRDSSGFQVF,51 µM,3 of 3,4 of 9
MGDSMRYYYAN,GKNNRPS,SSRDSSFFQVF,510 nM,3 of 3,4 of 9
PGDSLKYYIAN,GKNNRPS,SSRDSSGFQVF,730 nM,3 of 3,7 of 9
IGDPLRYYYAN,GKNNRPS,SSRDISGFQVF,940 nM,3 of 3,1 of 9
GGDWLRYYYAN,GKGNRPS,SSRDSSGFQVF,4.7 µM,3 of 3,3 of 9
FGDSLRYYYAN,GKNNRPS,SLRDSSGFQVF,4.9 µM,3 of 3,4 of 9
SGDSLRYYYAN,GKNNQPS,SSRDSSGLQVF,1.5 µM,3 of 3,7 of 9
WGDSLRYRYAN,GKNNRPS,SNRDSSGFQVF,130 nM,3 of 3,2 of 9
CLDSLRYYYAT,GKNNRPS,SSRDSSGFQVF,14 µM,2 of 3,5 of 9
YGDSLRYYYAN,GKNNRPS,SSIDSSGFSVF,1.5 µM,1 of 3,3 of 9
FGDSLTMYYAN,GKNNRPS,SSRDSSGFQVF,360 µM,1 of 3,3 of 9
FGDSLRYYYAN,GKNNRPS,SSKDSSGFKVF,190 nM,2 of 3,3 of 9
DGDSLRYYYAN,GRNNRPS,SMRDSSGFQVF,4.6 µM,3 of 3,6 of 9
TGDSLRYYYAN,GKNNRPS,SPRDFSGFQVF,1.3 µM,3 of 3,5 of 9
FGDSLRQYYAN,GKNNRPS,NSRDSSGFQVF,270 nM,3 of 3,1 of 9
CGDFLRYHYAN,GKNNRPS,SSRDSSGFQVF,88 nM,3 of 3,3 of 9
AGDSLRYYYAP,GKNNRPS,SSRDSSGFQVF,nd,0 of 3,4 of 9
NGDSLRYYYAN,GKNNRPS,SSRGSSGNQVF,250 nM,3 of 3,3 of 9
IGDSLRYYYAN,GLNNRPS,SSRDSSTFQVF,1.0 µM,1 of 3,1 of 9
TGESLRYYYAN,GKINRPS,SSRDSSGFQVF,2.1 µM,3 of 3,1 of 9
WGDSQRYYYAN,GKNNRPS,SSRDSIGFQVF,nd,0 of 3,0 of 9
WGDSLRYYYAN,GGNCRPS,SSRDSSGFQVF,27 µM,2 of 3,4 of 9
KGDSLRYYYAN,RKNNRPS,SSRDSSGHQVF,nd,0 of 3,0 of 9
PGDSWRYYYAN,GKNNRMS,SSRDSSGFQVF,52 µM,1 of 3,5 of 9
DEDSLRYYYAQ,GKNNRPS,SSRDSSGFQVF,9.4 µM,1 of 3,3 of 9
HGDSLPYYYAN,CKNNRPS,SSRDSSGFQVF,9.9 µM,2 of 3,0 of 9
SGDSLRYYYAN,AKNNRPN,SSRDSSGFQVF,1.0 µM,3 of 3,1 of 9
PGDSLRYYYAN,GMNNRPS,QSRDSSGFQVF,4.5 µM,2 of 3,0 of 9
IGDSLRYSYAN,GKNNRPS,SSRDSSGVQVF,13 nM,3 of 3,1 of 9
PLDSLWYYYAN,GKNNRPS,SSRDSSGFQVF,120 nM,3 of 3,3 of 9
YGDSLRYYYAN,GKNNTPS,SSRDSSGFSVF,4.8 µM,3 of 3,5 of 9
PGDSLRYYYAN,GHNNRPS,SSRDSSQFQVF,54 µM,2 of 3,6 of 9
NGDSLRYYYAN,GSNNRPS,WSRDSSGFQVF,570 nM,3 of 3,6 of 9
IGDSLRYYYAN,GKNNRPS,SSRDSSGFQVF,150 nM,3 of 3,2 of 9
LGDSLRYYYAN,YKNNRPS,SSRDSSGFQVF,3.3 µM,1 of 3,3 of 9
MGDSLRYYYAN,GKNNRPS,SSQDSSTFQVF,11 µM,2 of 3,4 of 9
IGLSLRYYYAN,GVNNRPS,SSRDSSGFQVF,78 µM,3 of 3,3 of 9

Three control strains display no target. For library AAYL52, 28% of the pairings with them gave a signal, with a median of 8.2 µM and one signal in twenty below 800 nM, so weak values seen in few replicates may be background. For each scFv, signals with the empty controls are counted beside the result.